Amino acid sequences for entries named in this document (tags omitted). A change or cut given only in a name is not applied to a line headed by its entry.
UniProt P06276, whole entry, looked up: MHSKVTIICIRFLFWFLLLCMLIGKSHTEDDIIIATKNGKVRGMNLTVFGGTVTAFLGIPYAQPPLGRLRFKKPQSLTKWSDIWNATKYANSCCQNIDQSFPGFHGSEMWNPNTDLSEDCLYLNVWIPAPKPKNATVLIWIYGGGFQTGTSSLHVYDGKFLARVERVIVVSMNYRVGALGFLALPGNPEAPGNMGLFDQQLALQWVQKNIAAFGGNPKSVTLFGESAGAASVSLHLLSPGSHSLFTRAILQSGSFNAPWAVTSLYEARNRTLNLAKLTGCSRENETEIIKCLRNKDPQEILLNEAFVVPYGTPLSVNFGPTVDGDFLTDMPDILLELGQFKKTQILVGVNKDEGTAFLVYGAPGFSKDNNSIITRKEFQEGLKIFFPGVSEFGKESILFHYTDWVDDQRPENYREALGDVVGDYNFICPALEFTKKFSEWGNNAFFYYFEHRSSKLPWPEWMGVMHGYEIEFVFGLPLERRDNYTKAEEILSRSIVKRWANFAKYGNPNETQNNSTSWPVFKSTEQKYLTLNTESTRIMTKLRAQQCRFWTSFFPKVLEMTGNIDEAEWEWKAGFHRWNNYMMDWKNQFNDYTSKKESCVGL
UniProt P22303: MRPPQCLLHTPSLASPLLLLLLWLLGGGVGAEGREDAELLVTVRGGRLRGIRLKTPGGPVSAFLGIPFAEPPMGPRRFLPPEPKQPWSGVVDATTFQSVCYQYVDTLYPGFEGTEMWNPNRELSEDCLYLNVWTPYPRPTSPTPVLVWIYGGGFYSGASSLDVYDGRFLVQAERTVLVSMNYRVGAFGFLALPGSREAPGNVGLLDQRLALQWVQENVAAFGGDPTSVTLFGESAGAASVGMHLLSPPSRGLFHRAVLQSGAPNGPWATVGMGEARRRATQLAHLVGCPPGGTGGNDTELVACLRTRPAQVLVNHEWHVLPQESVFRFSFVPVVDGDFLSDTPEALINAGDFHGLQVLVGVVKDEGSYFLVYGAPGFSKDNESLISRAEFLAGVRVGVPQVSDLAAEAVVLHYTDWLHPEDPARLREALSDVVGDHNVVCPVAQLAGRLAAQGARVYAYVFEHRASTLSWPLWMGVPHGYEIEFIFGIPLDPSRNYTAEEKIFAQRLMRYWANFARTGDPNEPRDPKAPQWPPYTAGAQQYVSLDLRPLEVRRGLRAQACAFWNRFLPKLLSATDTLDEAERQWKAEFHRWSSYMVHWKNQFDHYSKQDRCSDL

This assay addresses Cholinesterases; ACHE & BCHE (Homo sapiens) (UniProt P06276+P22303). The experiment in a line: Selectivity index, ratio of IC50 for human erythrocytes recombinant AChE to IC50 for human plasmatic BChE.
For `CCN(CC)C(C)CN1c2ccccc2Sc2ccccc21` (stereo not drawn), the Selectivity Index is 0.002.

As for `c1ccc2c(c1)ccc[n+]2CCCCCCCCCC[n+]1cccc2ccccc21`, the Selectivity Index is 100.

As to `C=CC[N+](C)(C)c1ccc(CCC(=O)CCc2ccc([N+](C)(C)CC=C)cc2)cc1`, the Selectivity Index is 11800.

The values are drawn from ChEMBL document CHEMBL1759923, “Preparation, in vitro screening and molecular modelling of symmetrical bis-quinolinium cholinesterase inhibitors--implications for early myasthenia gravis treatment” (Bioorg Med Chem Lett, 2011).
